The source made the active and inactive calls. How the calls were made is not given here.
Biological target: Nuclear receptor coactivator 1 (Homo sapiens) (UniProt Q15788)
Assay: SRC1 (NCOA1) coactivator inhibitors, dose response, cell-based, luciferase reporter, luminescence (AID 602235);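 further: cells transfected with pGL4.31 reporter plus pBIND-SRC1 vector; potency is for inhibitors that lower SRC1 reporter luminescence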

The chains behind the UniProt entries cited, without tags or fusion partners. Where a name states a change or a piece, a line headed by the entry shows the natural chain unless it says otherwise.
UniProt Q15788: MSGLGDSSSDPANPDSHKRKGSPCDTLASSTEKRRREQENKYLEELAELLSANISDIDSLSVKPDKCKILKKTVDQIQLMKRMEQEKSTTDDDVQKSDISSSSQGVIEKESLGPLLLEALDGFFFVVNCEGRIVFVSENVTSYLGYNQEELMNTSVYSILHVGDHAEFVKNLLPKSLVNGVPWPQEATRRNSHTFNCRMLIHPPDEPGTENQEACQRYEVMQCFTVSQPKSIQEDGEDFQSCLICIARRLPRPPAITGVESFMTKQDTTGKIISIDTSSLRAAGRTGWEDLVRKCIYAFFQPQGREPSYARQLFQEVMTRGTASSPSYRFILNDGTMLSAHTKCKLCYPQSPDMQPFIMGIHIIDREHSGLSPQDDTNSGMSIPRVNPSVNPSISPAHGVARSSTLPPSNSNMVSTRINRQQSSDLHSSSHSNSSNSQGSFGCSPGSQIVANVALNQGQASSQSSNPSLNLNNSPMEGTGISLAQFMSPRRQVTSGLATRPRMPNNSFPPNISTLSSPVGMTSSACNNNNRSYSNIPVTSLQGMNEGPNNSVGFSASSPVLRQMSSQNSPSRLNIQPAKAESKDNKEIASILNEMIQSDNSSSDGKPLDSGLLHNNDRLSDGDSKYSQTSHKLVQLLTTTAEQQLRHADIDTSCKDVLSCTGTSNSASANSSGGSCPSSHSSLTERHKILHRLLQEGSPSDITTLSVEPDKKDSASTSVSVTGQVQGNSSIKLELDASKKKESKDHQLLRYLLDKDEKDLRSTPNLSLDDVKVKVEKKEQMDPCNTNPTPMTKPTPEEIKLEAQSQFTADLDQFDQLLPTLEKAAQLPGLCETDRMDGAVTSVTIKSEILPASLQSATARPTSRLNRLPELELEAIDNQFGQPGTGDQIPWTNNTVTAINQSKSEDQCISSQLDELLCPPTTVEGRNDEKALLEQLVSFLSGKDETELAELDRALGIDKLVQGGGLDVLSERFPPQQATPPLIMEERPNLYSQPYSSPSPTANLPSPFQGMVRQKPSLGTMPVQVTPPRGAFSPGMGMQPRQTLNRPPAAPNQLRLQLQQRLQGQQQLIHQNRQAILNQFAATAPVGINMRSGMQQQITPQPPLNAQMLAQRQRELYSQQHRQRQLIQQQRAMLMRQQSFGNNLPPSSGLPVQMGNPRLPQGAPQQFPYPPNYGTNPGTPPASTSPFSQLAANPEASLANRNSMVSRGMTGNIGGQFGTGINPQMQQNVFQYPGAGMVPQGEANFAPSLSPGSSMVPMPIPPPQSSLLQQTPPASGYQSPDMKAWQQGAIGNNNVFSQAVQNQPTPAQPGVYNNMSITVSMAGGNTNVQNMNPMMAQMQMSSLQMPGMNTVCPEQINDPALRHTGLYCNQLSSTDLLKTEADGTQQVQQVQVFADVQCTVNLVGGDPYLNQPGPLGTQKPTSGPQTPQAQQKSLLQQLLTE

IC50	Compound
1.15 µM	COc1cc([C@@H]2c3cc4c(cc3[C@@H](O[C@@H]3O[C@@H]5CO[C@@H](C)O[C@H]5[C@H](O)[C@H]3O)[C@H]3COC(=O)[C@H]23)OCO4)cc(OC)c1O
inactive: > 12 µM	O=C(N/N=C/c1cc(Br)ccc1O)C(c1ccncc1)N1CCOCC1 (configuration not stated)
